# Antibody variant affinities, Ab-14 heavy chain, assay B

Values reported by Li et al. 2023, doi:10.1038/s41467-023-39022-2 (FLAb copy).

Target peptide (SARS-CoV-2 spike, HR2 region): PDVDLGDISGINAS

The variants keep the light chain, the linker and the frameworks of Ab-14 (scFv order VH, three GGGGS repeats, VL).
VH: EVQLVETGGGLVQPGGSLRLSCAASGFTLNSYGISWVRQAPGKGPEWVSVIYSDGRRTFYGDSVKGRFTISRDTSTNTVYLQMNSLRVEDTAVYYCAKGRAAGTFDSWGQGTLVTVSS
VL: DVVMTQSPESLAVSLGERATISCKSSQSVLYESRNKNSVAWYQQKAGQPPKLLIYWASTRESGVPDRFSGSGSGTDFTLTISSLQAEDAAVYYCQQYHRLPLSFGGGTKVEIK

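The variants were designed computationally from a first round of random CDR variants and then made and measured. Several design methods are mixed in this list. Affinity was read by AlphaSeq, a pooled yeast mating assay with surface-displayed partners. Mating (16 h, 30 °C) was followed by selection of diploids and sequencing of their barcodes. The ratio of observed to expected reads was calibrated, replicate by replicate, on BCL2-family standards whose Kd was known from biolayer interferometry. The assay was run in six technical replicates.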

Each variant is given by its three heavy chain CDRs, as the data file delimits them; those of the parent are GFTLNSYGIS, VIYSDGRRTFYGDSVK, GRAAGTFDS.
This list holds designs with more than six substitutions.
Values are log10 of the apparent Kd in nM; lower means stronger binding.
The mean shown is taken over the replicates in which the pair was detected.
"no signal" marks a missing value. The strain was present, yet no cells mated with the target were sequenced in any replicate, which points to weak or no binding.
Order: sorted from the lowest average up, undetected variants last.
The parent sequence was in this pool as ten entries: three were never detected, three once, and four in most replicates, with averages from 0.34 to 2.37.

Variant GFDLNEYGIS | VIYADGKRTAYADSVK | GQLAGTFDT gave -0.79 (6 of 6 replicates). For GFDLNEYGIS | VIYADGTRTAYADSVK | GNVAGTFDI, the assay gave -0.71 (6 of 6 replicates). For GFDLNEYGIS | VIYADGRRTAYADSVK | GENAGTFDM, the assay gave -0.68 (6 of 6 replicates). For GFDLNEYGIS | VIYADGRRTFYSDSVK | GNVAGTFDK, the assay gave -0.66 (6 of 6 replicates). Variant GFDLNEYGIS | VIYADGVRTAYADNVK | GEVAGTFDI showed -0.64 (6 of 6 replicates). For GFDLNEYGIS | VIYADGSRTFYSDSVK | GNQAGTFDT, the assay gave -0.64 (6 of 6 replicates). For GFDLDEYGIS | VIYADGRRTAYTDSVK | GNEAGTFDV, the assay gave -0.55 (6 of 6 replicates). Variant GFDLDEYGIS | VIYADGQRTAYADDVK | GNVAGTFDT showed -0.52 (6 of 6 replicates).

Variant GFDLNEYGIS | VIYADGRRSFYADSVK | GQLAGTFDL gave -0.49 (6 of 6 replicates). With GFDLNEYGIS | VIYADGRRTAYLDSVK | GEIAGTFDS the result was -0.47 (6 of 6 replicates). With GFDIEEMGVS | VIYADGIRTAVSEDVK | GNVAGTGDF the result was -0.46 (6 of 6 replicates). Variant GFDLNEYGIS | VIYADGKRTAYADSVK | GNEAGTFDM gave -0.35 (6 of 6 replicates). With GFDLEEYGIS | VIYADGRRTAYIDSVK | GEAAGTFDS the result was -0.35 (6 of 6 replicates). With GFDLDEYGIS | VIYADGVRTFYADSVK | GQNAGTFDV the result was -0.34 (6 of 6 replicates). Variant GFDLDEYGIS | VIYADGVRTAYADDVK | GQNAGTFDV gave -0.34 (6 of 6 replicates). Variant GFDLDEYGIS | VIYADGRRTFYADSVK | GEEAGTFDV gave -0.32 (6 of 6 replicates).

Variant GFDLDEYGIS | VIYADGRRTAYIDSVK | GNNAGTFDV gave -0.31 (6 of 6 replicates). Variant GFDLNEYGIS | VIYADGQRTAYADSVK | GSNAGTFDM gave -0.30 (6 of 6 replicates). With GFDLNEYGIS | VIYADGMRTAYSDSVK | GTNAGTFDM the result was -0.22 (6 of 6 replicates). Variant GFDLDEYGIS | VIYADGVRTAYADSVK | GENAGTFDI gave -0.18 (5 of 6 replicates). Variant GFDLDEYGIS | VIYADGQRTFYADSVK | GEVAGTFDL gave -0.15 (6 of 6 replicates). Variant GFDLNEYGIS | VIYADGVRTAYADSVK | GNEAGTFDM showed 0.05 (6 of 6 replicates). Variant GFDLDEYGIS | VIYADGVRKAYADSVK | GNNAGTFDV showed 0.08 (6 of 6 replicates). Variant GFNLNEYGIS | VIYADGRRTFYSDSVK | GEAGGTFDV gave 0.14 (3 of 6 replicates).

With GFDLNEYGIS | VIYADGRRTQYVDSVK | GNQAGTFDS the result was 0.23 (6 of 6 replicates). With GFDLNEYGIS | VIYADGRRTVYADSVK | GQNAGTFDV the result was 0.30 (6 of 6 replicates). Variant GFEIQEYGIS | VIYADGRRTAYAESVK | GTLGGTFLT gave 0.44 (4 of 6 replicates). Variant GFDLDEYGIS | VIYADGKRTAYVDSVK | GTNAGTFDV showed 1.20 (6 of 6 replicates). With GMDLNEYGIS | VIYADGSRTSYQEKVK | GLVGGMLAV the result was 1.58 (4 of 6 replicates). Variant GFDLEDYGIS | VIYADGKRQQYAQKFK | GTIGGTFVD gave 1.59 (6 of 6 replicates). For GFDLEEYGIS | VIYADGVRTAYADSVK | GNVAGTFDV, the assay gave 2.15 (5 of 6 replicates). Variant GMSLDEYGIS | VIYADGRRQAYSDEVK | GEHGWFATV showed no signal (0 of 6 replicates).

Variant GFALNEYGIS | VIYADGFRRAYTDKVK | GVLVGNFSS showed no signal (0 of 6 replicates). Variant GFDLAEYGIS | VIYADGMRNAYATNFK | GYIGGTIMY gave no signal (0 of 6 replicates). Variant GFDVDEQGIS | VIYADGRRSQYANSVK | GANGGMFFI gave no signal (0 of 6 replicates). Variant GFDLMEYGIS | VIYADGMRQYYANKFK | GEISASGLI showed no signal (0 of 6 replicates). Variant GFSLDEYGIS | VIYADGQRKSYADNVK | GYQGSRVSL showed no signal (0 of 6 replicates). For GFDLNEYGIS | VIYADGHRTRYSNNVK | GGQGGIGLS, the assay gave no signal (0 of 6 replicates). Variant GFTLNQYGIS | VIYSDGRRTDKSDSVK | GQDAGFFDS gave no signal (0 of 6 replicates). With GFDLNEYGIS | VIYADGIRTAYSDQVK | GMDGIVILF the result was no signal (0 of 6 replicates).

With GFDFNEYGIS | VIYADGKRQAYADKVK | GGKNAFTDI the result was no signal (0 of 6 replicates). With GFDIEEYGIS | VIYADGQRTMYKPNVK | GNHTGLVDI the result was no signal (0 of 6 replicates). For EFDLNEYGVS | VIYADGHRTFYADHVK | GQEAGFFFM, the assay gave no signal (0 of 6 replicates). For GQDLNEYGIS | VIYADGLRTAYLNNFK | GVNAGFDQY, the assay gave no signal (0 of 6 replicates). With GFKLNEYGIS | VIYADGQRVAYTNSFK | GTQAGMFFE the result was no signal (0 of 6 replicates).

Extract of 6 entries:

{"CDR-H1": "GFTLNQYGIS", "CDR-H2": "VIYSDGRRTDKSDSVK", "CDR-H3": "GQDAGFFDS", "mean log10 Kd (nM)": "no signal", "seen in": "0/6"}
{"CDR-H1": "GFEIQEYGIS", "CDR-H2": "VIYADGRRTAYAESVK", "CDR-H3": "GTLGGTFLT", "mean log10 Kd (nM)": "0.44", "seen in": "4/6"}
{"CDR-H1": "GMSLDEYGIS", "CDR-H2": "VIYADGRRQAYSDEVK", "CDR-H3": "GEHGWFATV", "mean log10 Kd (nM)": "no signal", "seen in": "0/6"}
{"CDR-H1": "GFDIEEMGVS", "CDR-H2": "VIYADGIRTAVSEDVK", "CDR-H3": "GNVAGTGDF", "mean log10 Kd (nM)": "-0.46", "seen in": "6/6"}
{"CDR-H1": "GFDLNEYGIS", "CDR-H2": "VIYADGIRTAYSDQVK", "CDR-H3": "GMDGIVILF", "mean log10 Kd (nM)": "no signal", "seen in": "0/6"}
{"CDR-H1": "GFDLMEYGIS", "CDR-H2": "VIYADGMRQYYANKFK", "CDR-H3": "GEISASGLI", "mean log10 Kd (nM)": "no signal", "seen in": "0/6"}

The range of this assay differs from that of the first round, and the authors advise against merging the two.
In the paper, a design with two or fewer of six values counts as a poor binder.
Empty control strains, which show no peptide, gave a signal in 1% of pairings with all heavy chain designs; the median was 2.08 and 95% of these signals were weaker than 0.84. No background was subtracted.